Test results from patent publication EP4837907A1, “NOVEL COMPOUND USED AS CBP/P300 INHIBITOR, AND PHARMACEUTICAL COMPOSITION FOR PREVENTING OR TREATING CANCER, INFLAMMATORY DISORDERS, OR AUTOIMMUNE DISEASES COMPRISING SAME AS ACTIVE INGREDIENT” (dated 2026).
pIC50: −log10 of the molar value.

Sequences of proteins named here, by UniProt entry; tags and fusion partners are left off. Residues count along the entry.
UniProt Q92793, 1085-1192 limits assumed: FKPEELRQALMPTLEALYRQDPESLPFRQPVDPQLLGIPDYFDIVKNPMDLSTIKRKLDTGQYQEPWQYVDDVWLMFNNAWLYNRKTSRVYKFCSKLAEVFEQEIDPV

What follows are molecules tested against CBP BRD protein (Homo sapiens, UniProt Q92793) (assay: CBP inhibitory activity, TR-FRET assay of the CBP bromodomain). Details: read-out: CBP BRD IC50, CBP BRD protein 7.5 nM, Ac-H4 peptide 85 nM, room temperature 2 hours.
Method: A time resolved fluorescence resonance energy transfer (TR-FRET) experiment was used to verify the activity of CBP bromodomain.
The assay was performed in a final volume of 14 µl, optimized based on a CREBBP time resolved fluorescence resonance energy transfer (TR-FRET) assay kit (BPS Bioscience, cat. 32619) to maximize an assay window, and performed in a final volume of 14 µl, while maximizing the assay window. A TR-FRET fluorescence acceptor and a Tb donor were diluted in an assay buffer containing 2-[4-(2-hydroxyethyl)piperazin-1-yl]ethanesulfonic acid (hereafter, referred to as an assay buffer, BPS Bioscience, cat. 33012), and 3 µl of each solution was transferred to all wells of a white 384-low-volume well plate (Corning, cat. 4513). 2 µl of 4X Ac-H4 peptide (final concentration 85 nM) was transferred to high control wells and test wells. Each compound was prepared at 10 concentration points by serially diluting 3-fold from the highest concentration in a dimethyl sulfoxide solvent. The compound at each concentration was then diluted in the assay buffer to prepare a diluted compound solution that was 4-fold more concentrated than the final concentration. 2 µl of each compound or dimethyl sulfoxide prepared in this way was distributed into an assay plate so that the final test concentration was a minimum of 0.5 µM to a maximum of 10 µM (final dimethyl sulfoxide concentration 1%). 6 µL of 1X assay buffer was added to low control wells and 2 µl was added to high control and test wells. Then, 2 µl of 4X CBP BRD protein (final concentration 7.5 nM, BPS bioscience, cat 31128) was added to initiate a PPI reaction. The plate was reacted at room temperature for 2 hours before measuring the signal. The TR-FRET signal was measured using an EnVision Multilabel plate reader (PerkinElmer; Mirror LNACE/DELFIA Dual/Bias). For data analysis, the values of each well were obtained using a TR-FRET ratio ((Signal 665 nm/Signal 615 nm) × 20000). Data analysis was performed using the TR-FRET ratio ((Signal 665 nm/Signal 615 nm) × 20000). Data were reported as percent inhibition compared to control wells based on the following equation: %Activity = ((FRETcompound - FRETLow av)/(FRETHigh av - FRETLow av)) × 100. IC50 analysis was determined by standard 4 parameter curve fitting according to an algorithm using GraphPad Prism 7.0 (GraphPad Software Inc., La Jolla, CA, USA). All data are expressed as mean ± standard error of the mean (SEM).

SMILES	pIC50
CNS(=O)(=O)c1ccc2nc(-c3cn(CCN4CCCC4)c4cc(C)ccc34)n(-c3ccc4c(c3)n(C)c(=O)n4C)c2c1	5.30 to 6.30
CNS(=O)(=O)c1ccc2nc(-c3cnn(-c4ccccc4)c3F)n(-c3ccc4c(c3)n(C)c(=O)n4C)c2c1	< 5.30
CNS(=O)(=O)c1ccc2nc(-c3cnn4cccnc34)n(-c3ccc4c(c3)n(C)c(=O)n4C)c2c1	5.30 to 6.30
CNS(=O)(=O)c1ccc2nc(-c3c[nH]c4ccc(C#N)cc34)n(-c3ccc4c(c3)n(C)c(=O)n4C)c2c1	5.30 to 6.30
CNS(=O)(=O)c1ccc2nc(-c3cc4ccccc4cc3OC)n(-c3ccc4c(c3)n(C)c(=O)n4C)c2c1	< 5.30
CNS(=O)(=O)c1ccc2nc([C@@H]3CCCC(=O)N3c3ccc(F)c(F)c3)n(-c3ccc4c(c3)n(C)c(=O)n4C)c2c1	< 5.30
CCn1c(=O)n(CC)c2cc(-n3c(-c4c[nH]c5cccc(F)c45)nc4ccc(S(=O)(=O)NC)cc43)ccc21	< 5.30
CNS(=O)(=O)c1ccc2nc(-c3c[nH]c4cc(F)ccc34)n(-c3ccc4c(c3)n(C)c(=O)n4C)c2c1	5.30 to 6.30
CN(CCCN1CCCCCC1)c1ncnc2c1nc(-c1cc3cccnc3[nH]1)n2-c1ccc2c(c1)n(C)c(=O)n2C	< 5.30
Cc1cccc(OCCN(C)c2ncnc3c2nc(-c2ccc4[nH]ccc4c2)n3-c2ccc3c(c2)n(C)c(=O)n3C)c1	< 5.30
Cc1ccc2c(-c3nc4c(N(C)C)ccnc4n3-c3ccc4c(c3)n(C)c(=O)n4C)c[nH]c2c1	< 5.30
CNS(=O)(=O)c1ccc2nc(-c3cn(C)c4cc(C)ccc34)n(-c3ccc4c(c3)n(C)c(=O)n4C)c2c1	< 5.30
COc1ccc2c(CCN(C)c3ncnc4c3nc(-c3ccn(C(C)C)c3)n4-c3ccc4c(c3)n(C)c(=O)n4C)c[nH]c2c1	< 5.30
CNS(=O)(=O)c1ccc2nc(-c3cnn(C)c3)n(-c3ccc4c(c3)n(C)c(=O)n4C)c2c1	5.30 to 6.30
CNS(=O)(=O)c1ccc2nc(-c3coc4ccccc34)n(-c3ccc4c(c3)n(C)c(=O)n4C)c2c1	5.30 to 6.30
Cc1ccc2c(-c3nc4ccccc4n3-c3ccc4c(c3)n(C)c(=O)n4C)c[nH]c2c1	< 5.30
Cc1ccc2c(-c3nc4ccccc4n3-c3ccc4c(c3)n(C)c(=O)n4C)cn(C)c2c1	< 5.30
CNS(=O)(=O)c1ccc2nc(C(=O)Nc3ccncc3)n(-c3ccc4c(c3)n(C)c(=O)n4C)c2c1	< 5.30
CNS(=O)(=O)c1ccc2nc(-c3c[nH]c4cc(C)ccc34)n(-c3ccc4c(c3)C(C)(C)C(=O)N4C)c2c1	< 5.30

SMILES	pIC50
Cc1ccc2c(-c3nc4c(N(C)CCc5ccsc5)ncnc4n3-c3ccc4c(c3)n(C)c(=O)n4C)c[nH]c2c1	< 5.30
CNS(=O)(=O)c1ccc2nc(-c3c[nH]c4ccc(F)cc34)n(-c3ccc4c(c3)n(C)c(=O)n4C)c2c1	5.30 to 6.30
CNS(=O)(=O)c1ccc2nc(-c3c[nH]c4ccccc34)n(-c3ccc4c(c3)n(C)c(=O)n4C)c2c1	5.30 to 6.30
Cn1cncc1-c1nc2ccccc2n1-c1ccc2c(c1)n(C)c(=O)n2C	< 5.30
CNS(=O)(=O)c1ccc2nc(C3CCCC(=O)N3)n(-c3ccc4c(c3)n(C)c(=O)n4C)c2c1 (stereo not drawn)	< 5.30
CN(CCCn1cc(Cl)cn1)c1ncnc2c1nc(-c1c[nH]c3cc(Br)ccc13)n2-c1ccc2c(c1)n(C)c(=O)n2C	< 5.30
Cn1c(=O)n(C)c2cc(-n3c(-c4cc5ccccc5[nH]4)nc4c(Cl)ncnc43)ccc21	< 5.30
CNS(=O)(=O)c1ccc2nc(-c3c[nH]c4ccc(Br)cc34)n(-c3ccc4c(c3)n(C)c(=O)n4C)c2c1	< 5.30
CNS(=O)(=O)c1ccc2nc(-c3c[nH]c4ccc(Cl)cc34)n(-c3ccc4c(c3)n(C)c(=O)n4C)c2c1	< 5.30
Cn1c(=O)n(C)c2cc(-n3c(-c4ccccc4)nc4ccccc43)ccc21	< 5.30
CNS(=O)(=O)c1ccc2nc(-c3nccc4ccccc34)n(-c3ccc4c(c3)n(C)c(=O)n4C)c2c1	5.30 to 6.30
CNS(=O)(=O)c1ccc2nc(-c3cn(C)nc3C3CC3)n(-c3ccc4c(c3)n(C)c(=O)n4C)c2c1	< 5.30
CNS(=O)(=O)c1ccc2nc(C3CCOC3)n(-c3ccc4c(c3)n(C)c(=O)n4C)c2c1 (stereo not drawn)	< 5.30
Cn1c(=O)n(C)c2cc(-n3c(-c4cnc[nH]4)nc4c(Cl)ncnc43)ccc21	< 5.30
CNC(=O)c1ccc2nc(-c3cc4ccccc4cc3OC)n(-c3ccc4c(c3)n(C)c(=O)n4C)c2n1	< 5.30
Cn1c(=O)n(C)c2cc(-n3c(-c4c[nH]c5ccccc45)nc4ccccc43)ccc21	< 5.30
Cn1c(=O)n(C)c2cc(-n3c(-c4cnc[nH]4)nc4ccccc43)ccc21	< 5.30
CNS(=O)(=O)c1ccc2nc(-c3cccc4[nH]ncc34)n(-c3ccc4c(c3)n(C)c(=O)n4C)c2c1	< 5.30
CN(C)c1ncnc2c1nc(-c1c[nH]c3cc(F)ccc13)n2-c1ccc2c(c1)n(C)c(=O)n2C	5.30 to 6.30

SMILES	pIC50
Cc1ccnc(-n2c(C)cc(-c3nc4c(N(C)CCN(C)c5ccccc5)ncnc4n3-c3ccc4c(c3)n(C)c(=O)n4C)c2C)c1	< 5.30
Cn1c(=O)n(C)c2cc(-n3c(-c4ccc(Br)cc4)nc4ccccc43)ccc21	< 5.30
Cc1ccc2c(-c3nc4c(Cl)ncnc4n3-c3ccc4c(c3)n(C)c(=O)n4C)c[nH]c2c1	< 5.30
Cn1c(=O)n(C)c2cc(-n3c(-c4cc5ccccc5[nH]4)nc4ccccc43)ccc21	< 5.30
CNS(=O)(=O)c1ccc2nc(C(=O)Nc3cccnc3)n(-c3ccc4c(c3)n(C)c(=O)n4C)c2c1	< 5.30
CNS(=O)(=O)c1ccc2nc(-c3c[nH]c4cc(C5CCN(C(=O)OC(C)(C)C)CC5)ccc34)n(-c3ccc4c(c3)n(C)c(=O)n4C)c2c1	< 5.30
Cc1ccc2c(-c3nc4c(N(C)C)nccc4n3-c3ccc4c(c3)n(C)c(=O)n4C)c[nH]c2c1	5.30 to 6.30
CNS(=O)(=O)c1ccc2nc(C3CCOC(C)(C)C3)n(-c3ccc4c(c3)n(C)c(=O)n4C)c2c1 (stereo not drawn)	< 5.30
CCNS(=O)(=O)c1ccc2nc(-c3c[nH]c4cc(C)ccc34)n(-c3ccc4c(c3)n(C)c(=O)n4C)c2c1	5.30 to 6.30
CCn1ccc2c(-c3nc4c(N(C)CCCN5CCCCCC5)ncnc4n3-c3ccc4c(c3)n(C)c(=O)n4C)cccc21	< 5.30
CNS(=O)(=O)c1ccc2nc(-c3c[nH]c4cc(Br)ccc34)n(-c3ccc4c(c3)n(C)c(=O)n4C)c2c1	5.30 to 6.30
CNS(=O)(=O)c1ccc2nc(-c3c[nH]c4c(Br)cccc34)n(-c3ccc4c(c3)n(C)c(=O)n4C)c2c1	5.30 to 6.30
CNS(=O)(=O)c1ccc2nc(-c3c[nH]c4cccc(F)c34)n(-c3ccc4c(c3)n(C3CC3)c(=O)n4C3CC3)c2c1	< 5.30
CNS(=O)(=O)c1ccc2nc(-c3cccc(-c4cnn(C)c4)c3)n(-c3ccc4c(c3)n(C)c(=O)n4C)c2c1	5.30 to 6.30
CNS(=O)(=O)c1ccc2nc(-c3c[nH]c4cc(C5=CCN(C(=O)OC(C)(C)C)CC5)ccc34)n(-c3ccc4c(c3)n(C)c(=O)n4C)c2c1	5.30 to 6.30
CN(Cc1cccc(-n2cccc2)c1)c1ncnc2c1nc(-c1cccc3[nH]cnc13)n2-c1ccc2c(c1)n(C)c(=O)n2C	< 5.30
CNS(=O)(=O)c1ccc2nc(-c3cncc4ccccc34)n(-c3ccc4c(c3)n(C)c(=O)n4C)c2c1	< 5.30
CNS(=O)(=O)c1ccc2nc(-c3c[nH]c4c(C5CC5)cccc34)n(-c3ccc4c(c3)n(C)c(=O)n4C)c2c1	5.30 to 6.30
Cc1ccc2c(-c3nc4ccc(S(=O)(=O)NCC5CC5)cc4n3-c3ccc4c(c3)n(C)c(=O)n4C)c[nH]c2c1	5.30 to 6.30
